Results as given in patent US9320731B2, “7-azoniabicyclo[2.2.1]heptane derivatives, methods of production, and pharmaceutical uses thereof” (dated 2016).

What was measured:
[1] = test system: methacholine-induced bronchoconstriction in guinea pig; assay: Guinea pig bronchoprotection, MCh dose response after inhalation; conditions: for Potency (ID50): 24 h post inhalation, nebulized drug solution 25 min, i.v. methacholine challenge; for Duration: duration of bronchoprotective effects against methacholine-induced bronchoconstriction after inhalation
[2] = test system: methacholine-induced bronchoconstriction in rat; assay: Rat bronchoprotection, MCh dose response after inhalation; conditions: for Potency (ID50): 24 h post inhalation, nebulized drug solution 25 min, i.v. methacholine challenge; for Duration: duration of bronchoprotective effects against methacholine-induced bronchoconstriction after inhalation

SMILES	Potency (ID50) [1] [µg/mL]	Duration [1]	Potency (ID50) [2]	Duration [2]
C[N+]1(C)C2CC[C@@H]1[C@H](OC(=O)[C@](O)(c1ccccc1)C1CCCC1)C2.[Br-]	3	+++ (+++ ≧48 h duration)	≦3 μg/mL	+++ (+++ ≧48 h duration)
C[N+]1(C)C2CC[C@H]1[C@H](OC(=O)[C@@](O)(c1ccccc1)C1CCCC1)C2.[Br-]				−
C[N+]1(C)C2CC[C@@H]1[C@@H](OC(=O)[C@](O)(c1ccccc1)C1CCCC1)C2.[Br-]	5	+++ (+++ ≧48 h duration)	≦3 μg/mL	+++ (+++ ≧48 h duration)
C[N+]1(C)C2CC[C@@H]1[C@@H](OC(=O)[C@@](O)(c1ccccc1)C1CCCC1)C2.[Br-]				−
C[N+]1(C)C2CC[C@H]1[C@@H](OC(=O)[C@@](O)(c1ccccc1)C1CCCC1)C2.[Br-]				−
C[N+]1(C)C2CC[C@@H]1[C@H](OC(=O)[C@@](O)(c1ccccc1)C1CCCC1)C2.[Br-]				−
C[N+]1(C)C2CC[C@H]1[C@@H](OC(=O)[C@](O)(c1ccccc1)C1CCCC1)C2.[Br-]			>10 µg/mL	+ (+ <24 h duration)
C[N+]1(C)C2CC[C@H]1[C@H](OC(=O)[C@](O)(c1ccccc1)C1CCCC1)C2.[Br-]	50	+++ (+++ ≧48 h duration)	≧10 μg/mL	++ (++ ≧24 h duration)
